PDI turbidity: PDI (human) enzyme inhibition | P07237 | PDI insulin aggregation turbidity, A650, 90 min | inhibition, % at 10 µM | 350,000 tested, 0.052% active | AID 588391;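 active = mean inhibition across replicates of 30% or more, whatever share of single replicates reach that level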
S100A4 MyoIIA: S100A4-myosin IIA interaction inhibition; inhibition, % at 10.7 µM; S100A4/TAMRA-MyoIIA peptide fluorescence polarization; 360,000 tested, 0.14% active; P26447;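 active = mean inhibition of at least 70% across replicates, with every replicate also reaching that level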
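Material: S100A4 monomer protein | Medium: HEPES pH 7.2 with CaCl2, KCl, NaCl, DTT, Triton | Reagent: Labelled myosin peptide probe, 5 nM | Doses: One dose per compound | Times: 5 min incubation before reading | Benchmarks: Neutral control DMSO, positive control TFP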
Yeast UUG start: yeast start codon fidelity modulation; activity score, % at 18.7 µM; actives 0.13% (n = 350,000); S. cerevisiae UUG-firefly luciferase reporter, luminescence/redox ratio; AID 602363;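 active means replicate mean at a twofold rise or more, about +100% in these data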;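 further: firefly luciferase made from a UUG start codon reports start codon fidelity; reporter light over untreated wells divided by growth signal over untreated wells; some hits fall short of that in this replicate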
FGF22 binding: binders of recombinant human FGF22 by thermal shift. Q9HCT0. SYPRO orange fluorescence; percent of sucrose octasulfate shift, DMSO zero. activity (Tm shift, normalised), % at 9.99 µM. 340,000 tested, 1.5% active;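 active = mean Tm shift, scaled 0 neutral to 100 positive control, at about 1.3% or above, every replicate too, limit read from the data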
ERp5 inh: inhibitors of human ERp5 | Q15084 | ERp5 insulin aggregation, absorbance 650 nm, 90 min | inhibition, % at 9.99 µM | 350,000 tested, 0.05% active;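 active = mean replicate inhibition above about 25%, with every replicate also reaching it, limit read from the data, passing the limit was not always enough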
SIRT5 block: blocks human SIRT5 desuccinylation of peptide. AID 652115. 330,000 tested, 1.1% active. inhibition, % at 15 µM. Purified SirT5, succinyl-peptide AMC, trypsin-coupled fluorescence. Q9NXA8; in the data active = inhibition above about 15%
Active calls of the source: *; nt = no result; ! = not confirmed by another sample. Only some compounds are listed: those with a hit (about 2.2% of all), similar ones and a draw of the others.

#1 O=c1c2c(-c3ccccc3)csc2ncn1/N=C/c1ccc(O)c([N+](=O)[O-])c1
#2 COc1cccc(NC(=O)N[C@H]2C=C[C@@H](CC(=O)N3CCOCC3)O[C@@H]2CO)c1
#3 Cc1c(C(=O)OCC(O)=C(C#N)c2nc3ccccc3[nH]2)oc2ccc(Br)cc12
#4 Cc1c(C(=O)OC/C(O)=C(\C#N)c2nc3ccccc3[nH]2)oc2ccccc12
#5 Cc1cc(C)n(-c2n[nH]c(C)c2[N+](=O)[O-])n1
#6 CC(C)NC(=O)N[C@H]1CC[C@@H](CCNC(=O)C2CCCC2)O[C@H]1CO
#7 Fc1ccc(Nc2c3c(nc4ccccc24)CCC3)cc1
#8 CN(C)C(=O)c1cccc(-c2ccc([C@@H]3[C@@H](C#N)N(C(=O)C4CCCC4)[C@@H]3CO)cc2)c1

Assay by compound,1,2,3,4,5,6,7,8
Yeast UUG start,nt,-5.2,nt,-4.5,nt,nt,-3.4,nt
S100A4 MyoIIA,-1.3,4.9,-5.8,-8.6,0.4,2.0,-2.7,8.6
FGF22 binding,44.1*,-0.2,-0.3,-0.1,44.4*,nt,1.5*,nt
ERp5 inh,-0.1,-3.8,0.9,-7.5,-2.3,0.8,-9.4,1.6
SIRT5 block,nt,-0.8,30.5*,-3.6,-2.6,-6.0,4.7,3.9
PDI turbidity,-2.8,nt,-2.8,-1.2,-0.5,nt,-6.0,nt

#9 C=CCN1C(=O)/C(=C\C=C2\N(C)c3ccccc3C2(C)C)SC1=S
#10 Cc1ccc(Cn2c(=O)sc3ccccc3c2=O)cc1
#11 O=c1sc2ccccc2c(=O)n1Cc1ccccc1F
#12 COc1cccc(Cn2c(=O)sc3ccccc3c2=O)c1
#13 CCC(=O)Nc1ccc2c(c1)OC[C@H](C)N(C(=O)c1cnccn1)C[C@@H](C)[C@H](OC)CN(C)C2=O
#14 O=C(Cc1cccnc1)N1CC2(C1)[C@@H](c1ccccc1)[C@@H](CO)N2C(=O)C1CC1
#15 CCOC(=O)c1cc(-c2ccccc2)nn1CC1CC(c2cccnc2)=NO1 (stereo not drawn)
#16 CCOC(=O)c1cc(-c2cccnc2)nn1-c1ccccc1C

Assay by compound,9,10,11,12,13,14,15,16
Yeast UUG start,nt,-11.2,nt,nt,-6.5,nt,-16.0,-10.8
S100A4 MyoIIA,33.7,nt,-4.5,-1.7,-7.2,2.4,6.9,-0.6
FGF22 binding,44.1*,nt,43.2*,43.3*,nt,0.0,0.0,43.5*
ERp5 inh,-3.9,nt,1.2,1.9,-8.9,6.3,4.3,1.0
SIRT5 block,-0.7,nt,-0.9,-2.5,-0.2,-2.0,nt,-2.0
PDI turbidity,-55.8,-3.7,6.9,-6.8,nt,nt,-2.5,-0.8

#17 COc1ccc(C(=O)NC(=S)N2CCCc3ccccc32)cc1OC
#18 COc1ccc(N2CC(NC(=O)N3CCc4ccccc43)CC2=O)cc1OC (stereo not drawn)
#19 CC1Cc2ccccc2N1C(=O)NC1CC(=O)N(c2ccc3c(c2)OCCO3)C1 (stereo not drawn)
#20 CN(C)C(=O)[C@@H]1[C@@H](CO)[C@@H]2Cn3c(ccc(C4=CCCCC4)c3=O)[C@H]1N2Cc1ccccc1
#21 CCCCCCCCOC(=O)c1nc(Cl)c(Cl)c(N)c1Cl
#22 COC(=O)c1nc(Cl)c(Cl)c(N)c1Cl
#23 Nc1c(Cl)c(Cl)nc(C(=O)OCC(=O)N2CCCC2=O)c1Cl
#24 COc1ccc2c3c([nH]c2c1)[C@H](CO)N(C(=O)c1cccnc1)CC31CCN(C(=O)NC(C)C)CC1

Assay by compound,17,18,19,20,21,22,23,24
Yeast UUG start,-6.6,14.3,nt,nt,-10.5,nt,-10.2,nt
S100A4 MyoIIA,30.1,-0.9,1.0,-5.6,-2.9,-5.2,-4.7,nt
FGF22 binding,-0.2,0.1,0.2,0.0,1.5*,0.1,0.2,0.1
ERp5 inh,-0.5,-7.5,-0.2,2.4,4.7,-3.3,2.1,nt
SIRT5 block,112.3*,19.6*,-0.5,-35.0,nt,16.6*,1.9,nt
PDI turbidity,2.5,3.7,6.7,nt,5.9,2.0,-4.0,nt

Reformatted with two lines to a compound: three of the compounds above.
Below each SMILES – Yeast UUG start, S100A4 MyoIIA, FGF22 binding, ERp5 inh, SIRT5 block, PDI turbidity
17. COc1ccc(C(=O)NC(=S)N2CCCc3ccccc32)cc1OC
 : -6.6, 30.1, -0.2, -0.5, 112.3*, 2.5
20. CN(C)C(=O)[C@@H]1[C@@H](CO)[C@@H]2Cn3c(ccc(C4=CCCCC4)c3=O)[C@H]1N2Cc1ccccc1
 : nt, -5.6, 0.0, 2.4, -35.0, nt
21. CCCCCCCCOC(=O)c1nc(Cl)c(Cl)c(N)c1Cl
 : -10.5, -2.9, 1.5*, 4.7, nt, 5.9

The list goes on:
#25 C[C@H]1CN([C@@H](C)CO)C(=O)c2cc(C#CCc3ccccc3)cnc2O[C@H]1CN(C)CC1CCOCC1
#26 C[C@H](CO)N1C[C@H](C)[C@H](CN(C)Cc2ccccc2)Oc2ncc(C#CCN(C)C)cc2C1=O
#27 C[C@@H]1CN([C@@H](C)CO)C(=O)c2cc(C#CCc3ccccc3)cnc2O[C@@H]1CN(C)CC1CC1
#28 Cc1ccc(S(=O)(=O)N(C)C[C@H]2Oc3ncc(-c4ccncc4)cc3C(=O)N([C@H](C)CO)C[C@H]2C)cc1
#29 CC(C)S(=O)(=O)c1ccc(C(=O)Nc2ccc(F)cc2F)cn1
#30 COc1ccc2[nH]c(=O)c(CN(Cc3ccccc3)C(=S)NCC3CCCO3)cc2c1 (stereo not drawn)
#31 COc1ccc2cc(CN(Cc3ccco3)C(=S)NCC3CCCO3)c(=O)[nH]c2c1 (stereo not drawn)
#32 O=C(NCC1CC1)[C@H]1[C@H](CO)[C@H]2Cn3c(ccc(-c4cccnc4)c3=O)[C@@H]1N2C(=O)C1CCCC1

Assay by compound,25,26,27,28,29,30,31,32
Yeast UUG start,0.4,-4.8,nt,36.7,nt,nt,nt,nt
S100A4 MyoIIA,12.0,0.7,120.9*,1.4,0.8,-5.3,2.4,8.8
FGF22 binding,0.1,-0.1,-0.2,-0.3,43.0*,43.8*,0.2,nt
ERp5 inh,-1.5,6.3,1.9,-1.0,6.6,7.5,0.1,6.2
SIRT5 block,9.2,18.6*!,2.3,7.1,-2.6,-2.9,3.0,-33.4
PDI turbidity,nt,nt,nt,nt,5.8,0.2,3.6,nt

#33 CC1(C)Cc2ccccc2C(=NCC(=O)O)N1
#34 NNC(=O)c1nc[nH]c1C(=O)Nc1ccccn1
#35 O=C(C[n+]1ccccc1)N/N=C/c1ccc(F)cc1
#36 Cc1ccc(/C=N/NC(=O)C[n+]2ccccc2)o1
#37 O=C(C[n+]1ccccc1)N/N=C/c1ccc(Br)cc1
#38 O=C(C[n+]1ccccc1)N/N=C/c1ccccc1Cl
#39 O=C(C[n+]1ccccc1)N/N=C/c1ccccc1[N+](=O)[O-]
#40 C[C@H]1CN([C@@H](C)CO)C(=O)c2cc(-c3ccncc3)cnc2O[C@@H]1CN(C)C(=O)C1CC1

Assay by compound,33,34,35,36,37,38,39,40
Yeast UUG start,nt,nt,nt,nt,-17.1,-11.5,nt,0.4
S100A4 MyoIIA,5.6,-0.7,0.0,3.2,-4.0,-2.1,-2.7,nt
FGF22 binding,43.1*,42.9*,-0.1,0.2,0.1,0.3,43.2*,nt
ERp5 inh,-9.0,7.6,0.9,-3.6,-3.0,-10.5,-4.3,nt
SIRT5 block,-0.2,-2.0,112.3*,21.4*,-2.3,3.0,-0.1,nt
PDI turbidity,-1.2,-7.5,9.2,-1.6,-5.3,-13.4,14.6,nt

#41 COc1cccc(C(=O)Nc2ccc3c(c2)C(=O)N(C)C[C@H](OC)[C@@H](C)CN(C)[C@H](C)CO3)c1
#42 COC(=O)C[C@H]1CC[C@H]2[C@H](COc3ccc(NC(=O)c4cc(C)on4)cc3C(=O)N2C)O1
#43 CN(Cc1ccccc1)C(=O)c1nc2ccccn2c1CN1CCC(N2CCOCC2)CC1
#44 C=CCOc1ccc(C[C@H](N)C(=O)NC[C@H]2O[C@@H](n3ccc(N)nc3=O)[C@H](O)[C@@H]2O)cc1
#45 NNC(=O)c1ccccc1-n1cccc1
#46 Cc1ccc(S(=O)(=O)c2ccc(C)cc2)cc1
#47 Cc1ccc(S(=O)(=O)C=CS(=O)(=O)c2ccc(C)cc2)cc1
#48 O=C(c1cccnc1)N1CC(=O)N2[C@H](CO)[C@@H](c3ccc(/C=C/c4ccccc4)cc3)[C@@H]2C1

Assay by compound,41,42,43,44,45,46,47,48
Yeast UUG start,7.6,-6.5,2.1,-9.9,11.5,-8.4,40.2,nt
S100A4 MyoIIA,7.4,6.6,3.9,-4.3,-5.6,16.7,7.4,-20.1
FGF22 binding,0.3,0.0,0.3,43.3*,43.1*,0.3,-0.1,nt
ERp5 inh,10.7,-3.5,-6.3,4.7,-0.5,6.1,31.5*,-2.4
SIRT5 block,-1.4,1.2,15.0*,nt,21.8*,-1.2,1.8,2.0
PDI turbidity,nt,nt,-2.2,-2.2,-11.5,-3.4,3.7,nt

Screens: PubChem BioAssay, Broad Institute
